Tested on: HL-60 cells
Test: Differentiation of HL-60 promyelocytes to monocytes (NBT reduction)
Format: cell-based
Conditions: ratio of analog ED50 to ED50 for 1α,25-(OH)2D3
Description: The differentiation of HL-60 promyelocytic into monocytes was determined as described by Ostrem et al (J. Biol. Chem. 262, 14164-14171, 1987).
The differentiation of HL-60 promyleocytic into monocytes was determined as described by Ostrem et al (J. Biol. Chem. 262, 14164-14171, 1987).

Compound: C=C1/C(=C\C=C2/CCC[C@]3(C)[C@@H]([C@H](C)CCCC(C)(C)O)CC[C@@H]23)C[C@@H](O)C[C@@H]1O [1,25-(OH)2D3, 1α,25-dihydroxyvitamin D3, reference compound]
- HL-60 Differentiation Activity ratio: 1

From US6696431B2, “26,27-homologated-20-EPI-2-alkylidene-19-nor-vitamin D compounds” (Wisconsin Alumni Research Foundation, priority 1997, dated 2004)
